Literature values in patent publication US6333348A, “Use of docetaxel for treating cancers” (Aventis Pharma S.A., priority 2000, dated 2001).

What was measured:
[1] = system: HER2/neu overexpressing human breast cancer xenografts; settings: preclinical animal models; cited from earlier work
[2] = system: cancers that express HER2; settings: 4 mg/kg loading dose, then 2 mg/kg weekly; alone; cited from earlier work
[3] = rhuMAb HER2 alone; cited from earlier work
[4] = system: cancers that express HER2; settings: rhuMAb HER2 administered alone; first published study; cited from earlier work

## rhuMAb HER2: recombinant humanized anti-HER2 antibody; active ingredient of HERCEPTIN® or else HERCEPTIN® itself
[1]
  enhancement of antitumor activity of chemotherapeutic agents: enhances the antitumor activity of chemotherapeutic agents
[2]
  complete responses (number): eight
  complete responses (rate): 4%
  partial responses (number): 26 partial responses
  partial responses (rate): 11%
[3]
  cardiac dysfunction: associated with cardiac dysfunction
  neutropenia, alopecia and mucositis: rarely caused
[4]
  overall objective response rate: 11.6%
